# Reference: article PMC4079689, “HIV Treatments Reduce Malaria Liver Stage Burden in a Non-Human Primate Model of Malaria Infection at Clinically Relevant Concentrations In Vivo” (PLoS ONE, 2014)
# Details: rhesus monkey, in vivo
substance,measurement,value
trimethoprim sulfamethoxazole [TMP-SMX],Toxicity of dosing as used,non-toxic
